In patent US8258100B2, “Ligand/lytic peptide methods of use” (Board of Supervisors of Louisiana State University and …, priority 1997, dated 2012):

Tests used:
[1] = system: DU145 cells; assay: specific binding of LH to prostate cancer cells; design: species or system human
[2] = system: LNCaP cells; assay: specific binding of LH to prostate cancer cells; design: species or system human

LH: luteinizing hormone
specific binding [1]: specifically binds DU145 cells
specific binding [2]: have not been able to consistently measure specific binding
